Reference: patent US12533408B2, “Treatment regimen for the treatment of autoimmune disorders” (Merck Patent GmbH, priority 2020, dated 2026)

Test system: T-cell subtypes, NK cells
Experiment: Longitudinal blood analysis of T-cell subsets and NK cells (MAGNIFY-MS)
[1] = Patient Australia VZV-70056800221260001, month 0, 8.6 wk after Zostavax, 1.3 wk before first Mavenclad dose
[2] = Patient Australia VZV-70056800221260001, month 3, 24.6 wk after Zostavax, 14.7 wk after first Mavenclad dose
[3] = Patient Canada VZV-70056800222530003, month 0, 9.7 wk after Shingrix, before first Mavenclad dose
[4] = Patient Canada VZV-70056800222530003, month 3, 23.0 wk after Shingrix, 13.3 wk after first Mavenclad dose
[5] = Patient Finland VZV-70056800221620004, month 0, 6.4 wk after Zostavax, before first Mavenclad dose
[6] = Patient Finland VZV-70056800221620004, month 3, 18.3 wk after Zostavax, 11.9 wk after first Mavenclad dose
[7] = Patient Finland VZV-70056800221620004, month 6, 32.3 wk after Zostavax, 25.9 wk after first Mavenclad dose
[8] = Patient Finland VZV-70056800221620004, month 12, 61.3 wk after Zostavax, 54.9 wk after first Mavenclad dose
[9] = Patient Finland VZV-70056800221620004, month 15, 74.3 wk after Zostavax, 13.0 wk after first dose of previous Mavenclad course

## Nc1nc(Cl)nc2c1ncn2[C@H]1C[C@H](O)[C@@H](CO)O1 [cladribine tablets, Cladribine]
Month 1
  CD4+ T-cells, change vs baseline: −76%
  CD8+ T-cells, change vs baseline: −22%
  Total CD4+ T cells, depletion (minor effects): 30%
  Total CD8+ T cells, depletion (minor effects): 20%
Month 2
  CD4+ T-cells, change vs baseline: −90%
  CD8+ T-cells, change vs baseline: −37%
Month 3
  CD4+ CM, change vs baseline: −56%
  CD4+ EffM, change vs baseline: −40%
  CD4+ T-cells, change vs baseline: −76%
  CD4+ Treg, change vs baseline: −35%
  CD8+ CM, change vs baseline: −51%
  CD8+ EfM, change vs baseline: −40%
  CD8+ T-cells, change vs baseline: −48%
  Naïve CD4+ T cells, change vs baseline: −63%
  Naïve CD8 T-cells, change vs baseline: −76%
Month 3, listed as Cladribine
  CD4+ TH1, change vs baseline: −56%
  CD4+TH17, change vs baseline: −37%
Month 3, listed as cladribine
  CD4+ TH1, change vs baseline: −56%
  CD4+TH17, change vs baseline: −37%
Month 6
  CD4+ CM, change vs baseline: −59%
  CD4+ EffM, change vs baseline: −38%
  CD4+ TH1, change vs baseline: −55%
  CD4+ Treg, change vs baseline: −43%
  CD4+TH17, change vs baseline: −42%
  CD8+ CM, change vs baseline: −52%
  CD8+ EfM, change vs baseline: −38%
  Naïve CD4+ T cells, change vs baseline: −67%
  Naïve CD8 T-cells, change vs baseline: −75%
Month 6, listed as Cladribine
  CD4+ T-cells, change vs baseline: −57%
  CD8+ T-cells, change vs baseline: −50%
Month 6, listed as cladribine
  CD4+ T-cells, change vs baseline: −60%
  CD8+ T-cells, change vs baseline: −50%
Month 12
  CD4+ CM, change vs baseline: −48%
  CD4+ EffM, change vs baseline: −27%
  CD4+ T-cells, change vs baseline: −11%
  CD4+ TH1, change vs baseline: −46%
  CD4+ Treg, change vs baseline: −36%
  CD4+TH17, change vs baseline: −29%
  CD8+ CM, change vs baseline: −35%
  CD8+ EfM, change vs baseline: −27%
  CD8+ T-cells, change vs baseline: −46%
  Naïve CD4+ T cells, change vs baseline: −59%
  Naïve CD8 T-cells, change vs baseline: −60%
[1]
  CD3+ TC: 880 cells/μL
  CD4+ TC: 586 cells/μL
  CD4+ Th1 TC: 263.0 cells/μL
  CD4+ Th2 TC: 220.8 cells/μL
  CD4+ Th 17 TC: 7.2 cells/μL
  CD4+ Treg: 38.4 cells/μL
  CD4+ cent. mem. TC: 339.5 cells/μL
  CD4+ eff. mem. TC: 134.5 cells/μL
  CD4+ naïve TC: 111.3 cells/μL
  CD8+ TC: 282 cells/μL
  CD8+ cent. mem. TC: 34.1 cells/μL
  CD8+ eff. mem. TC: 89.0 cells/μL
  CD8+ naïve TC: 107.8 cells/μL
  CD8+ term. diff. effector TC: 51.1 cells/μL
  CD16+ CD56+ NKC: 77 cells/μL
[2]
  CD3+ TC: 669 cells/μL
  CD4+ TC: 464 cells/μL
  CD4+ Th1 TC: 209.6 cells/μL
  CD4+ Th2 TC: 162.8 cells/μL
  CD4+ Th 17 TC: 8.2 cells/μL
  CD4+ Treg: 33.8 cells/μL
  CD4+ cent. mem. TC: 257.7 cells/μL
  CD4+ eff. mem. TC: 132.9 cells/μL
  CD4+ naïve TC: 72.3 cells/μL
  CD8+ TC: 196 cells/μL
  CD8+ cent. mem. TC: 27.5 cells/μL
  CD8+ eff. mem. TC: 67.2 cells/μL
  CD8+ naïve TC: 46.6 cells/μL
  CD8+ term. diff. effector TC: 54.7 cells/μL
  CD16+ CD56+ NKC: 79 cells/μL
[3]
  CD3+ TC: 1,634 cells/μL
  CD4+ TC: 956 cells/μL
  CD4+ Th1 TC: 440.8 cells/μL
  CD4+ Th2 TC: 443.1 cells/μL
  CD4+ Th 17 TC: 10.2 cells/μL
  CD4+ Treg: 91.9 cells/μL
  CD4+ cent. mem. TC: 460.6 cells/μL
  CD4+ eff. mem. TC: 238.2 cells/μL
  CD4+ naïve TC: 256.4 cells/μL
  CD8+ TC: 655 cells/μL
  CD8+ cent. mem. TC: 73.9 cells/μL
  CD8+ eff. mem. TC: 183.9 cells/μL
  CD8+ naïve TC: 356.1 cells/μL
  CD8+ term. diff. effector TC: 41.2 cells/μL
  CD16+ CD56+ NKC: 243 cells/μL
[4]
  CD3+ TC: 543 cells/μL
  CD4+ TC: 274 cells/μL
  CD4+ Th1 TC: 121.0 cells/μL
  CD4+ Th2 TC: 110.9 cells/μL
  CD4+ Th 17 TC: 7.6 cells/μL
  CD4+ Treg: 39.1 cells/μL
  CD4+ cent. mem. TC: 96.7 cells/μL
  CD4+ eff. mem. TC: 118.0 cells/μL
  CD4+ naïve TC: 59.4 cells/μL
  CD8+ TC: 241 cells/μL
  CD8+ cent. mem. TC: 11.9 cells/μL
  CD8+ eff. mem. TC: 135.6 cells/μL
  CD8+ naïve TC: 45.8 cells/μL
  CD8+ term. diff. effector TC: 47.7 cells/μL
  CD16+ CD56+ NKC: 107 cells/μL
[5]
  CD4+ TC: 622 cells/μL
  CD4+ Th1 TC: 254.6 cells/μL
  CD4+ Th2 TC: 312.6 cells/μL
  CD4+ Th 17 TC: 4.5 cells/μL
  CD4+ Treg: 44.8 cells/μL
  CD4+ cent. mem. TC: 273.6 cells/μL
  CD4+ eff. mem. TC: 83.3 cells/μL
  CD4+ naïve TC: 264.2 cells/μL
  CD8+ TC: 408 cells/μL
  CD8+ cent. mem. TC: 38.1 cells/μL
  CD8+ eff. mem. TC: 83.3 cells/μL
  CD8+ naïve TC: 220.9 cells/μL
  CD8+ term. diff. effector TC: 65.7 cells/μL
  CD16+ CD56+ NKC: 165 cells/μL
[6]
  CD3+ TC: 397 cells/μL
  CD4+ TC: 192 cells/μL
  CD4+ Th1 TC: 74.7 cells/μL
  CD4+ Th2 TC: 94.1 cells/μL
  CD4+ Th 17 TC: 2.6 cells/μL
  CD4+ Treg: 27.4 cells/μL
  CD4+ cent. mem. TC: 83.9 cells/μL
  CD4+ eff. mem. TC: 40.0 cells/μL
  CD4+ naïve TC: 67.0 cells/μL
  CD8+ TC: 185 cells/μL
  CD8+ cent. mem. TC: 18.8 cells/μL
  CD8+ eff. mem. TC: 80.7 cells/μL
  CD8+ naïve TC: 46.8 cells/μL
  CD8+ term. diff. effector TC: 38.7 cells/μL
  CD16+ CD56+ NKC: 112 cells/μL
[7]
  CD3+ TC: 364 cells/μL
  CD4+ TC: 195 cells/μL
  CD4+ Th1 TC: 74.6 cells/μL
  CD4+ Th2 TC: 107.0 cells/μL
  CD4+ Th 17 TC: 3.0 cells/μL
  CD4+ Treg: 27.8 cells/μL
  CD4+ cent. mem. TC: 101.3 cells/μL
  CD4+ eff. mem. TC: 13.6 cells/μL
  CD4+ naïve TC: 79.7 cells/μL
  CD8+ TC: 153 cells/μL
  CD8+ cent. mem. TC: 23.2 cells/μL
  CD8+ eff. mem. TC: 41.9 cells/μL
  CD8+ naïve TC: 55.1 cells/μL
  CD8+ term. diff. effector TC: 32.9 cells/μL
  CD16+ CD56+ NKC: 120 cells/μL
[8]
  CD3+ TC: 474 cells/μL
  CD4+ TC: 266 cells/μL
  CD4+ Th1 TC: 101.1 cells/μL
  CD4+ Th2 TC: 134.5 cells/μL
  CD4+ Th 17 TC: 5.0 cells/μL
  CD4+ Treg: 28.4 cells/μL
  CD4+ cent. mem. TC: 120.0 cells/μL
  CD4+ eff. mem. TC: 37.2 cells/μL
  CD4+ naïve TC: 108.2 cells/μL
  CD8+ TC: 188 cells/μL
  CD8+ cent. mem. TC: 26.3 cells/μL
  CD8+ eff. mem. TC: 52.0 cells/μL
  CD8+ naïve TC: 71.2 cells/μL
  CD8+ term. diff. effector TC: 38.5 cells/μL
  CD16+ CD56+ NKC: 183 cells/μL
[9]
  CD3+ TC: 169 cells/μL
  CD4+ TC: 94 cells/μL
  CD4+ Th1 TC: 38.1 cells/μL
  CD4+ Th2 TC: 45.7 cells/μL
  CD4+ Th 17 TC: 3.0 cells/μL
  CD4+ Treg: 20.7 cells/μL
  CD4+ cent. mem. TC: 43.5 cells/μL
  CD4+ eff. mem. TC: 19.3 cells/μL
  CD4+ naïve TC: 30.6 cells/μL
  CD8+ TC: 74 cells/μL
  CD8+ cent. mem. TC: 9.5 cells/μL
  CD8+ eff. mem. TC: 18.3 cells/μL
  CD8+ naïve TC: 25.6 cells/μL
  CD8+ term. diff. effector TC: 20.6 cells/μL
  CD16+ CD56+ NKC: 86 cells/μL
Month 1-2, then repopulate to normal numbers
  NK cells: moderate decrease
